Tests used:
HEK293 = assay: Selectivity ratio of Ki for human opioid delta receptor expressed in HEK293 cells to Ki for human opioid kappa receptor expressed in CHO cells; assay type: cell-based
CHO = assay: Selectivity ratio of Ki for human opioid mu receptor expressed in CHO cells to Ki for human opioid kappa receptor expressed in CHO cells; assay type: cell-based
Striatum = assay: Ratio of drug uptake in striatum to cerebellum in rat at 1 ug/kg, iv measured after 40 mins by LC/MS/MS analysis; details: in vivo, 0.001 mg/kg

| Ratio (Striatum) | Compound | Ratio Ki (HEK293) | Ratio Ki (CHO) |
| --- | --- | --- | --- |
|  | CC1(C)CN(Cc2ccc(Oc3ccc(C(N)=O)cn3)cc2)C1c1ccccc1 (racemic) | > 350 | 37 |
| 0.3 | CC1(C)CN(Cc2ccc(Oc3ccc(C(N)=O)cn3)cc2)[C@@H]1c1ccccc1 | > 475 | 41 |
|  | CC1(C)CN(Cc2ccc(Oc3ccc(C(N)=O)cn3)cc2)[C@H]1c1ccccc1 | > 19 | 4 |

From ChEMBL document CHEMBL1921714, “Discovery of aminobenzyloxyarylamides as κ opioid receptor selective antagonists: application to preclinical development of a κ opioid receptor antagonist receptor occupancy tracer” (J Med Chem, 2011)
